Protein sequences, listed by entry. Tags and fused reporters are not part of them. Chains listed by the source or under a name are the forms on record and can include a tag or linker.
UniProt P06730, with tags, fused parts or gaps: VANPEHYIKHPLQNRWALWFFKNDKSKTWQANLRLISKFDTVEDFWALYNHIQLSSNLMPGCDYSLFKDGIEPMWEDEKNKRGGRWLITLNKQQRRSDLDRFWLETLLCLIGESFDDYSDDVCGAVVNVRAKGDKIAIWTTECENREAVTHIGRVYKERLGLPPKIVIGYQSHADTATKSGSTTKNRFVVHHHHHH

In patent publication US9409961B2, “Cell penetrating peptides to target EIF4E” (Hoffmann-La Roche Inc., priority 2012, dated 2016):

Columns and labels:
human eIF4E = biological target: T1, human eIF4E (Homo sapiens, UniProt P06730); assay: biochemical assay of peptide binding to human eIF4E (displacement of biotin labeled 4G2 peptide)
T1 construct: made in house
Procedure: A biochemical assay was run to test peptide binding to human eIF4E.
Human eIF4E (aa 28-217, SEQ ID NO: 87) with a C-terminal His tag (HH-eIF4E, SEQ ID NO: 88) was expressed in E. coli in inclusion bodies. The protein was solubilized with 8 M urea and purified under denaturing conditions using nickel-charged HisTrap HP columns (GE Healthcare). The protein was refolded by diluting to approximately 0.25 mg/mL with 6 M urea, 20 mM Hepes pH 7.0, 500 mM NaCl, 1 mM DTT, 1 mM EDTA, and 0.5 M arginine.HCl, and then dialyzing overnight into the same buffer without the urea. The protein was further dialyzed into 20 mM Hepes pH 6.5, 50 mM NaCl, 1 mM EDTA, and 1 mM DTT, filtered, and then concentrated using Hitrap SP sepharose FF columns (GE Healthcare). The protein was dialyzed into 20 mM Hepes pH 7.0, 500 mM NaCl, 5 mM DTT, and 10% glycerol and stored at −80° C. until use.
Test peptides (1.6 mM stock in DMSO) were diluted 3 fold in series in DMSO and solutions were diluted 4 fold in Assay Buffer (50 mM NaPi, pH 6.5, 50 mM KCl, 1 mM DTT, 0.004% NP40 and 0.5 mg/ml gammaglobulin). Six microliters per well of diluted peptide solutions and 12 microliters per well of 187.5 nM HH-eIF4E in Assay Buffer were added to 384-well polypropylene microplates (Matrix, Thermal Scientific). Twelve microliters per well of 187.5 nM biotin labeled 4G2 peptide (Ac-[…]Aha-Bio)-NH2 (SEQ ID NO: 91) 1:2 TFA) in Assay Buffer was added. The samples were incubated at room temperature for 20 minutes.
Six microliters per well of 4.8 nM Eu-streptavidin (Columbia Biosciences) and 48 nM Allophycocyanin-anti His antibody (Columbia Biosciences) in Assay Buffer (without DTT) were then added and the samples were incubated at room temperature for 30 min. Assay signals were monitored by reading emission fluorescence at 665 nm on an Envision Reader (PerkinElmer Life and Analytical Sciences). IC50 values were calculated using Condoseo software (Genedata AG, Basel, Switzerland).

[1] = stability in human plasma; format: in vitro ADME; details: pH 7.4, Conc. 10 uM, 37° C.
Procedure: (§1) The following study was conducted to assess the stability of the compound of Examples 2-4 (SEQ ID NOS: 9, 10 and 11) in Hannover Wistar rat and human plasma after 4 and 24 hours. Approximately, 2.0 mg of the compound of Examples 2-4 (SEQ ID NOS 9, 10 and 11) was weighed out and placed in a 4 mL amber vial. To this was added 1.0 mL DMSO. The vial was carefully vortexed to produce a solution of approximately 600 μM.
(§2) Hannover Wistar rat plasma and human plasma (anti-coagulant sodium EDTA) were pre-warmed to 37° C. for 30 minutes in a water bath. The pH of both plasmas was adjusted to pH7.4. 1.5 mL microcentrifuge vials were used.
(§3) The stock solution of the compound of Examples 2-4 was diluted into rat or human plasma to a final concentration of 10 μM. The two vials were gently vortexed ensuring proper mixing.
(§4) Six new vials were labeled as follows: rat T0, rat T4, rat T24, human T0, human T4, human T24. To each of these vials, 50 μL of treated plasma was added. The T4 and T24 vials were capped and placed in a 37° C. incubator for 4 and 24 hours, respectively.
(§5) To each of the two T0 vials, 50 μL of Sorensen buffer and 200 μL 1.0% acetic acid in acetonitrile were added. […]
(§6) All samples were analyzed by LC/MS/MS. […] The percent of compound remaining at each time point as compared with the amount present in the comparison T0 sample was calculated.

stability in rat plasma = format: in vitro ADME; details: Hannover Wistar, pH 7.4, Conc. 10 uM, 37° C.
Procedure: as §1, §2, §3, §4, §5, §6

[2] = IC50 (μM), Table 1, peptides which bind eIF4E but are not cell-penetrating
[3] = IC50 (μM), Table 2a, cell penetrating peptides with the Y----LL-F and YWLLALFVY motifs

CCCC[C@H](NC(=O)[C@H](Cc1ccccc1)NC(=O)[C@H](CCC(N)=O)NC(=O)[C@H](Cc1ccccc1)NC(=O)[C@H](CC(=O)O)NC(=O)[C@H](CC(C)C)NC(=O)[C@H](CC(C)C)NC(=O)[C@H](Cc1ccccc1)NC(=O)[C@H](CCC(N)=O)NC(=O)[C@H](CCCNC(=N)N)NC(=O)[C@H](CC(=O)O)NC(=O)[C@H](Cc1ccc(O)cc1)NC(C)=O)C(N)=O [SEQ ID NO: 71, Ac-Tyr-Asp-Arg-Gln-Phe-Leu-Leu-Asp-Phe-Gln-Phe-Nle-NH2]
IC50 (human eIF4E; [2]): 11 µM

CSCC[C@H](NC(C)=O)C(=O)N[C@@H](C)C(=O)N[C@@H](CC(N)=O)C(=O)N[C@@H](CC(C)C)C(=O)N[C@@H](C)C(=O)N[C@@H](Cc1ccc(O)cc1)C(=O)N[C@@H](Cc1c[nH]c2ccccc12)C(=O)N[C@@H](CC(C)C)C(=O)N[C@@H](CC(C)C)C(=O)N[C@@H](C)C(=O)N[C@@H](CC(C)C)C(=O)N[C@@H](Cc1ccccc1)C(=O)N[C@H](C(=O)N[C@@H](Cc1ccc(O)cc1)C(=O)N[C@@H](CCSC)C(=O)N[C@@H](Cc1ccc2ccccc2c1)C(=O)N[C@H](C(=O)N[C@@H](CC(=O)O)C(=O)N[C@@H](CC(C)C)C(=O)N[C@@H](CCCNC(=N)N)C(=O)N[C@@H](CC(C)C)C(=O)N[C@@H](Cc1ccccc1)C(=O)N[C@@H](CCCCN)C(=O)N[C@@H](CCCCN)C(=O)N[C@@H](CCCNC(=N)N)C(=O)N1CCC[C@H]1C(=O)N[C@@H](CCCCN)C(=O)N1CCC[C@H]1C(N)=O)[C@@H](C)O)C(C)C [SEQ ID NO: 44, Ac-Met-Ala-Asn-Leu-Ala-Tyr-Trp-Leu-Leu-Ala-Leu-Phe-Val-Tyr-Met-2Nal-Thr-Asp-Leu-Arg-Leu-Phe-Lys-Lys-Arg-Pro-Lys-Pro-NH2]
IC50 (human eIF4E; [3]): 2.15 µM

CCCC[C@H](NC(=O)[C@H](Cc1ccccc1)NC(=O)[C@H](CCC(N)=O)NC(=O)[C@H](Cc1ccccc1)NC(=O)[C@H](CC(=O)O)NC(=O)[C@H](CC(C)C)NC(=O)[C@H](CC(C)C)NC(=O)[C@H](Cc1ccccc1)NC(=O)[C@H](CCC(N)=O)NC(=O)[C@H](CCCNC(=N)N)NC(=O)[C@H](CC(N)=O)NC(=O)[C@H](Cc1ccc(O)cc1)NC(C)=O)C(N)=O [SEQ ID NO: 75, Ac-Tyr-Asn-Arg-Gln-Phe-Leu-Leu-Asp-Phe-Gln-Phe-Nle-NH2]
IC50 (human eIF4E; [2]): 11 µM

CCCC[C@H](NC(=O)[C@@H](NC(=O)[C@H](CCCCN)NC(=O)[C@H](CO)NC(=O)[C@H](CCCCN)NC(=O)[C@H](Cc1ccc(O)cc1)NC(=O)[C@H](CCSC)NC(C)=O)[C@@H](C)CC)C(=O)N[C@@H](CC(C)C)C(=O)N[C@@H](Cc1c[nH]c2ccccc12)C(=O)N[C@@H](Cc1ccccc1)C(=O)N[C@@H](CC(C)C)C(=O)N[C@H](C(=O)N[C@@H](CC(C)C)C(=O)N[C@@H](Cc1ccccc1)C(=O)N[C@H](C(=O)N[C@@H](C)C(=O)N[C@@H](CCSC)C(=O)N[C@@H](Cc1c[nH]c2ccccc12)C(=O)N[C@@H](CO)C(=O)N[C@@H](CC(=O)O)C(=O)N[C@H](C(=O)N[C@@H](CCCCN)C(=O)N[C@@H](CC(C)C)C(=O)N[C@@H](CCCCN)C(=O)N[C@@H](CCCCN)C(=O)N[C@@H](CCCCN)C(=O)N[C@@H](CCCNC(=N)N)C(=O)N1CCC[C@H]1C(=O)N[C@@H](CCCCN)C(=O)N1CCC[C@H]1C(N)=O)C(C)C)C(C)C)C(C)C [SEQ ID NO: 46]
IC50 (human eIF4E; IC50 (μM), Table 3, cell-penetrating peptides without the Y----LL-F motif): 6.38 µM

CSCC[C@H](NC(C)=O)C(=O)N[C@@H](C)C(=O)N[C@@H](CCCCN)C(=O)N[C@@H](CC(C)C)C(=O)N[C@@H](CCCCN)C(=O)N[C@@H](Cc1ccc(O)cc1)C(=O)N[C@@H](Cc1c[nH]c2ccccc12)C(=O)N[C@@H](CC(C)C)C(=O)N[C@@H](CC(C)C)C(=O)N[C@@H](C)C(=O)N[C@@H](CC(C)C)C(=O)N[C@@H](Cc1ccccc1)C(=O)N[C@H](C(=O)N[C@@H](Cc1ccc(O)cc1)C(=O)N[C@@H](CCSC)C(=O)N[C@@H](Cc1c[nH]c2ccccc12)C(=O)N[C@H](C(=O)N[C@@H](CC(=O)O)C(=O)N[C@@H](CC(C)C)C(=O)N[C@@H](CC(C)C)C(=O)N[C@@H](CC(C)C)C(=O)N[C@@H](CC(C)(C)C)C(=O)N[C@@H](CCCCN)C(=O)N[C@@H](CCCCN)C(=O)N[C@@H](CCCNC(=N)N)C(=O)N1CCC[C@H]1C(=O)N[C@@H](CCCCN)C(=O)N1CCC[C@H]1C(N)=O)[C@@H](C)O)C(C)C [SEQ ID NO: 30]
IC50 (human eIF4E; [3]): 2.24 µM

CSCC[C@H](NC(C)=O)C(=O)N[C@@H](C)C(=O)N[C@@H](CC(N)=O)C(=O)N[C@@H](CC(C)C)C(=O)N[C@@H](C)C(=O)N[C@@H](Cc1ccc(O)cc1)C(=O)N[C@@H](Cc1c[nH]c2ccccc12)C(=O)N[C@@H](CC(C)C)C(=O)N[C@@H](CC(C)C)C(=O)N[C@@H](C)C(=O)N[C@@H](CC(C)C)C(=O)N[C@@H](Cc1ccccc1)C(=O)N[C@H](C(=O)N[C@@H](Cc1ccc(O)cc1)C(=O)N[C@@H](CCSC)C(=O)N[C@@H](Cc1c[nH]c2ccccc12)C(=O)N[C@H](C(=O)N[C@@H](CC(=O)O)C(=O)N[C@@H](CC(C)C)C(=O)N[C@@H](CCCNC(=N)N)C(=O)N[C@@H](CC(C)C)C(=O)N[C@@H](CC(C)(C)C)C(=O)N[C@@H](CCCCN)C(=O)N[C@@H](CCCCN)C(=O)N[C@@H](CCCNC(=N)N)C(=O)N1CCC[C@H]1C(=O)N[C@@H](CCCCN)C(=O)N1CCC[C@H]1C(N)=O)[C@@H](C)O)C(C)C [SEQ ID NO: 11]
remaining at 4 h, 10 µM ([1]; 4 hr): 103%
remaining at 24 h, 10 µM ([1]; 24 hr): 77%
IC50 (human eIF4E; Binding affinities expressed as IC50, HH-eIF4E, biotin labeled 4G2 peptide): 2.37 µM
IC50 (human eIF4E; [3]): 2.37 µM
remaining at 4 h, 10 µM (stability in rat plasma; 4 hr): 89.4%
remaining at 24 h, 10 µM (stability in rat plasma; 24 hr): 24.2%

CSCC[C@H](NC(C)=O)C(=O)N[C@@H](C)C(=O)N[C@@H](CC(N)=O)C(=O)N[C@@H](CC(C)C)C(=O)N[C@@H](C)C(=O)N[C@@H](Cc1ccc(O)cc1)C(=O)N[C@@H](Cc1c[nH]c2ccccc12)C(=O)N[C@@H](CC(C)C)C(=O)N[C@@H](CC(C)C)C(=O)N[C@@H](C)C(=O)N[C@@H](CC(C)C)C(=O)N[C@@H](Cc1ccccc1)C(=O)N[C@H](C(=O)N[C@@H](Cc1ccc(O)cc1)C(=O)N[C@@H](CCSC)C(=O)N[C@@H](Cc1cccc2ccccc12)C(=O)N[C@H](C(=O)N[C@@H](CC(=O)O)C(=O)N[C@@H](CC(C)C)C(=O)N[C@@H](CCCNC(=N)N)C(=O)N[C@@H](CC(C)C)C(=O)N[C@@H](Cc1ccccc1)C(=O)N[C@@H](CCCCN)C(=O)N[C@@H](CCCCN)C(=O)N[C@@H](CCCNC(=N)N)C(=O)N1CCC[C@H]1C(=O)N[C@@H](CCCCN)C(=O)N1CCC[C@H]1C(N)=O)[C@@H](C)O)C(C)C [SEQ ID NO: 43, Ac-Met-Ala-Asn-Leu-Ala-Tyr-Trp-Leu-Leu-Ala-Leu-Phe-Val-Tyr-Met-1Nal-Thr-Asp-Leu-Arg-Leu-Phe-Lys-Lys-Arg-Pro-Lys-Pro-NH2]
IC50 (human eIF4E; [3]): 2.59 µM
